According to patent US11642392B2, “Therapeutic agent of uremia containing alarin as the main ingredient” (JU TIDE CO., LTD., priority 2017, dated 2023):

Conditions: all test substance-administered groups (10 and 20 μg/1 mL/head IV, single dose), Day 7, vs normal control group
Method: The intravenous administration was done by fixing an animal into a correction frame, and slowly injecting at a rate of within 1 mL/min through the micro vein using a syringe equipped with 26 gauges needle. The intraperitoneal administration was performed by fixing the animal by a transdermal skin fixation method and intraperitoneally injecting using a syringe equipped with 26 gauges needle.

alarin (human) trifluoroacetate salt [test substance]
weight level measured on the day of necropsy: no significant difference from the normal control group
